Data on one compound can be found in patent US20090143761A1, “AGENT DELIVERY SYSTEM AND USES OF SAME” (T[…] COMPANY, LLC, priority 2005, published 2009).

As to `O=C([O-])[O-].[Li+].[Li+]` [lithium, lithium carbonate], the “passive delivery of lithium without iontophoresis” value (control, electrodes present but no current passed) was “no passive delivery”. The “effect of current on amount of lithium delivered” value (two current dosages, EpiDerm, 37 C) was “A two-fold increase in current caused an equivalent increase in the amount of lithium delivered”.
